The record followed here is ChEMBL document CHEMBL3994596, “Structural Basis for Potency and Promiscuity in Poly(ADP-ribose) Polymerase (PARP) and Tankyrase Inhibitors” (J Med Chem, 2017).

pIC50: −log10 of the molar value.

The target of this experiment is T1, Poly [ADP-ribose] polymerase tankyrase-1 (Homo sapiens, UniProt O95271).
T1 sequence (O95271 whole entry): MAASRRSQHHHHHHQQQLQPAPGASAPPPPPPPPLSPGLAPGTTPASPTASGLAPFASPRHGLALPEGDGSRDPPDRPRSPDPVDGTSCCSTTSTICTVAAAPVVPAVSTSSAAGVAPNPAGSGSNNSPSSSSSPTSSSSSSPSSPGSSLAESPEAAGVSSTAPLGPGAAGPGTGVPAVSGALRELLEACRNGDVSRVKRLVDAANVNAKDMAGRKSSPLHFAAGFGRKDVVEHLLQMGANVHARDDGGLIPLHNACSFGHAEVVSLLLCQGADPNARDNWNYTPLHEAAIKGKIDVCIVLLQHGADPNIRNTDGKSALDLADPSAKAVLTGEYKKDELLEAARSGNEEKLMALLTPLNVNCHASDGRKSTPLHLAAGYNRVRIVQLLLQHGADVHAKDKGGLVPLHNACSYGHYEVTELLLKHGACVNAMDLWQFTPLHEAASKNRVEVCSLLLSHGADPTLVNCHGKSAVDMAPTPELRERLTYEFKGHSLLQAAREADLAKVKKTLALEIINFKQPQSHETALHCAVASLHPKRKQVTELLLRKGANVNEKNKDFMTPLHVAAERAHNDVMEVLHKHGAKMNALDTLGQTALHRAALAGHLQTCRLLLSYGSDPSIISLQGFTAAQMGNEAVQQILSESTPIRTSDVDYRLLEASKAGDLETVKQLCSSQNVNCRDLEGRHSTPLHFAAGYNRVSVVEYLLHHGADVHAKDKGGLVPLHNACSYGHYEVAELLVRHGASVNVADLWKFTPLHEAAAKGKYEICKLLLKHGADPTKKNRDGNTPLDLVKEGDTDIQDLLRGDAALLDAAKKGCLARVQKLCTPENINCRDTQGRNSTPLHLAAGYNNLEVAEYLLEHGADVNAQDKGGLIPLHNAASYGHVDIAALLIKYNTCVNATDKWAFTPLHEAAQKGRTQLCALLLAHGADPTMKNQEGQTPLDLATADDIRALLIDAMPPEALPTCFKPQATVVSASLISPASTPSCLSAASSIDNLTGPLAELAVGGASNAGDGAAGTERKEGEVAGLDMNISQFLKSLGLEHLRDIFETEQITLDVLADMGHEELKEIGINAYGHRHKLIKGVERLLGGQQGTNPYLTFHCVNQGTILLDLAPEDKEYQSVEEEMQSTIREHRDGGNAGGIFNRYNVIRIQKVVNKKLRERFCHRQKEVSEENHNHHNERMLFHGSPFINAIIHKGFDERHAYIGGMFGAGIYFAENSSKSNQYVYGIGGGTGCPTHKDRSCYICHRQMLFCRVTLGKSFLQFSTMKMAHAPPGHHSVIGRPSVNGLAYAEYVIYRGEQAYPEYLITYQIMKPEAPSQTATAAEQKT

One may read the pIC50 as the negative decadic logarithm of the IC50, by convention in mol/L. Lower therefore signals a large IC50. The compound `NC(=O)c1cccc2cn(-c3ccc([C@@H]4CCCNC4)cc3)nc12` [NIRAPARIB] had a pIC50 of 5.63.
